Earlier results in US10449216B2, “Modulating drug effects against metabotropic glutamate receptor with extracellular calcium” (GEORGIA STATE UNIVERSITY RESEARCH FOUNDATION, INC., priority 2013, dated 2019).

Amino acid sequences for entries named in this document (tags omitted). Residues count along the entry.
UniProt P23385, 19-1199: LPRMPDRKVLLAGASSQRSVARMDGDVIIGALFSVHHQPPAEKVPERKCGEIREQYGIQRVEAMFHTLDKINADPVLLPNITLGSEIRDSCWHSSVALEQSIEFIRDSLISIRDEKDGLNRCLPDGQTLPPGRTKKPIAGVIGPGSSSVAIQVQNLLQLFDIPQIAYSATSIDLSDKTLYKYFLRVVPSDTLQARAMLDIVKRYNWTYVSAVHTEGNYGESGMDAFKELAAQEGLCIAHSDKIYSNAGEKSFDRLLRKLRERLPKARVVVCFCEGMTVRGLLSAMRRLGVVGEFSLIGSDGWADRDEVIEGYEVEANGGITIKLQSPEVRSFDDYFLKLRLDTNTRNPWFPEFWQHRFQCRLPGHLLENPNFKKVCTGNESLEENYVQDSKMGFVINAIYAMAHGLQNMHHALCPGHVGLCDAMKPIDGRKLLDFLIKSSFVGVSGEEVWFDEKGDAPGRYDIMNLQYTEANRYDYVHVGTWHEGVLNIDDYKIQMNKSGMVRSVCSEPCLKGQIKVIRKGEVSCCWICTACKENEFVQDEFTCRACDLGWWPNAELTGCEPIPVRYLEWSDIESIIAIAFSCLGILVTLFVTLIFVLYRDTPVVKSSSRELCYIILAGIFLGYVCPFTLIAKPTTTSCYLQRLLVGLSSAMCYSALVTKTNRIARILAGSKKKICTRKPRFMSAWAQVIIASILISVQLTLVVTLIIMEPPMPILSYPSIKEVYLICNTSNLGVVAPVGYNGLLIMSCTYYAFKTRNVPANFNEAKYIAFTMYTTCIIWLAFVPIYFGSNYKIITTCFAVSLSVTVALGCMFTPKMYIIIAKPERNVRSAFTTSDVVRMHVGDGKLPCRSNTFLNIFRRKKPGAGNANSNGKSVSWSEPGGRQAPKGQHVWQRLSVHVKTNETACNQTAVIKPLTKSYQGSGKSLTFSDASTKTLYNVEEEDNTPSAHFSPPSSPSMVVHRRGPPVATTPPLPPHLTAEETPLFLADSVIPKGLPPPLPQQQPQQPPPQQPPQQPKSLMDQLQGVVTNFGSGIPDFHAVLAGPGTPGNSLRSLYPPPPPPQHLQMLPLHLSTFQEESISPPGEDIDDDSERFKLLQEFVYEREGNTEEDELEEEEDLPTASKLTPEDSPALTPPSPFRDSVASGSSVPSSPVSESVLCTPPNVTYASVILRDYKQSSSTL
UniProt P41594, 21-1212: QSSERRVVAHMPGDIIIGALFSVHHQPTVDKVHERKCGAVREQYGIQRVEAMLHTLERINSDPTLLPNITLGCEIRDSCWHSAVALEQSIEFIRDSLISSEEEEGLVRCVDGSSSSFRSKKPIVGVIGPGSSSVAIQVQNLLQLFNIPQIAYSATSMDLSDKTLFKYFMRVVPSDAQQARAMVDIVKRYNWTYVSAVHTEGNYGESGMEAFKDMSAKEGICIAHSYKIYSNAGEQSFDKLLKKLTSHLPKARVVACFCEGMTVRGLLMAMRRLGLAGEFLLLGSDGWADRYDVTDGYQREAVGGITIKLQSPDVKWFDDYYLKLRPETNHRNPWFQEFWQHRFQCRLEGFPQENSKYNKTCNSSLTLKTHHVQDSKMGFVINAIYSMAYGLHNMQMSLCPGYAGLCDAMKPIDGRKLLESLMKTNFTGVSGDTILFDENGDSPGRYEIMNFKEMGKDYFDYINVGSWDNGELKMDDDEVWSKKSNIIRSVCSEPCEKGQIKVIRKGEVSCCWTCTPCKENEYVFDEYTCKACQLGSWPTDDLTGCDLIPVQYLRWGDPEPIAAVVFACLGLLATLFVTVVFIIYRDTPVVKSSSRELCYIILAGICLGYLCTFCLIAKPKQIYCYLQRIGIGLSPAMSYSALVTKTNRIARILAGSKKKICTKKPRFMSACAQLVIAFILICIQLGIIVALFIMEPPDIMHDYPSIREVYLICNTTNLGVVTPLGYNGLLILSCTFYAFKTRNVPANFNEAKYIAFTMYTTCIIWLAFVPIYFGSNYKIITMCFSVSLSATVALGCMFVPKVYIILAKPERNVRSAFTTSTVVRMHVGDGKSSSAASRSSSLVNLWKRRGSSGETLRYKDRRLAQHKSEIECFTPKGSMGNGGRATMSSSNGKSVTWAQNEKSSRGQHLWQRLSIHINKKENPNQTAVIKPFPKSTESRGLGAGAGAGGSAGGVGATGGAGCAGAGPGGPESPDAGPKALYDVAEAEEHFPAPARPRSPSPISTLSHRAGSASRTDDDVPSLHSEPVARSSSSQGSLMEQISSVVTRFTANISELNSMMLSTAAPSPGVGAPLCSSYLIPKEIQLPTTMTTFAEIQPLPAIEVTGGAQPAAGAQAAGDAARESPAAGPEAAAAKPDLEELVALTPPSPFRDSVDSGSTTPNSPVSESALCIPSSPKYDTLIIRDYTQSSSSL
UniProt P31424, 21-1203: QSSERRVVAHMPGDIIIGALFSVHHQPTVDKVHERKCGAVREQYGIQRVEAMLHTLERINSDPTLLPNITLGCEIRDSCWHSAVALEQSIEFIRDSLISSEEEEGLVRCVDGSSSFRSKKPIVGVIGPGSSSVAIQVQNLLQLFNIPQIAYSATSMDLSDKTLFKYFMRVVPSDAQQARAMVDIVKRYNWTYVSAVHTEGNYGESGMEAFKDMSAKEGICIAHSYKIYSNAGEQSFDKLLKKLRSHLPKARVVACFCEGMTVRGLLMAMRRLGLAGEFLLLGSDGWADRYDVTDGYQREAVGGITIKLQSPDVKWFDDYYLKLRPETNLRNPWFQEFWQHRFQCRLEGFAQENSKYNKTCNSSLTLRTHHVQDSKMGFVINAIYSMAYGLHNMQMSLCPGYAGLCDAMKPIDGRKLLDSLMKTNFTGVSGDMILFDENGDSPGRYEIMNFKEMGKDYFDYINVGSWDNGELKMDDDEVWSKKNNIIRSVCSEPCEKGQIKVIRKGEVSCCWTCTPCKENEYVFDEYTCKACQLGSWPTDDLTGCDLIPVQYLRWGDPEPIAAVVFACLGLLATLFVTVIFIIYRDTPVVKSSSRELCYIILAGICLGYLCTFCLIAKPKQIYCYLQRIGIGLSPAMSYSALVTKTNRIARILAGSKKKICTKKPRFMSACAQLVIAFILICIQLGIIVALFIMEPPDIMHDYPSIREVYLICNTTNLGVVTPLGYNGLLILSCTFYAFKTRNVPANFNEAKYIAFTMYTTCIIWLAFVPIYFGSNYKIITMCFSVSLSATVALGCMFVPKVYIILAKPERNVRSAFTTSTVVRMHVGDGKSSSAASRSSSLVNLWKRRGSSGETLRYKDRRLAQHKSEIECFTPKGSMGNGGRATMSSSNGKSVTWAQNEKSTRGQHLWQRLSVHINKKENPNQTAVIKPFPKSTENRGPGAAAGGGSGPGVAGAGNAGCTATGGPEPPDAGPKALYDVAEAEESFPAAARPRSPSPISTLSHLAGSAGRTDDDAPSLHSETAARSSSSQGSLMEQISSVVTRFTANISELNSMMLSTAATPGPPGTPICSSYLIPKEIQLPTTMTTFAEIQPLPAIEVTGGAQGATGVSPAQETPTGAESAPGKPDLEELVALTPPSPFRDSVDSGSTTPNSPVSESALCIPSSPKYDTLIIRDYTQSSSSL

How the values were obtained:
mGluR1 = mGluR1 (Rattus norvegicus, UniProt P23385); conditions: mGluR1, Sp. Rn; cited from earlier work
mGluR5 [1] = target: mGluR5 (Homo sapiens, UniProt P41594); conditions: mGluR5, Sp. Hs; cited from earlier work
mGluR5 [2] = target: mGluR5 (Rattus norvegicus, UniProt P31424); conditions: mGluR5, Sp. Rn; cited from earlier work

Question: Which “Affinity (pKi)” value (mGluR1) does the source give for N[C@@]1(C(=O)O)CC[C@@H](C(=O)O)C1 [(1S,3R)-ACPD] here?
Answer: 5.5-6.1 pKi

Question: Which results are given for N#Cc1cccc(C(=O)Nc2cc(-c3ccccc3)nn2-c2ccccc2)c1 [CDPPB]?
Answer: Affinity (pEC50) (mGluR5 [1]): 7.6-8.0 pEC50; Affinity (pEC50) (mGluR5 [2]): 7.7 pEC50

Question: Which “Affinity (pIC50)” value (mGluR5 [1]) does the source give for Cc1cccc(C#Cc2ccccc2)n1 [MPEP] here?
Answer: 7.4-7.7 pIC50

Question: Which “Affinity (pIC50)” value (mGluR5 [2]) does the source give for Cc1n[14c](C#Cc2cccnc2)cs1 [[14C]MTEP] here?
Answer: 7.7 pIC50
